From patent US6541463B1, “Inhibitors of type 5 and type 3 17β-hydroxysteroid dehydrogenase and methods for their use” (Endorecherche, Inc., priority 1998, dated 2003) come the findings set out here.

Chains of the proteins cited; added tags and fusions are not shown.
UniProt P42330, whole entry: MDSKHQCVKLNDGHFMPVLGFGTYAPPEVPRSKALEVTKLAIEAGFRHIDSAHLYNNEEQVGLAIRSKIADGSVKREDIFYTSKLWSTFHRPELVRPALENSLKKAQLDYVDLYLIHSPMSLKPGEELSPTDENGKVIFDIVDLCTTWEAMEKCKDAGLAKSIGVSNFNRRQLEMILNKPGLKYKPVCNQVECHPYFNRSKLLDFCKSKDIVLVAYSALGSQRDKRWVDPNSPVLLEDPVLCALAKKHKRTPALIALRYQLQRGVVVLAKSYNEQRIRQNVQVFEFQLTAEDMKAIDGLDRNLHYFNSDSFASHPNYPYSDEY
UniProt P37059, whole entry: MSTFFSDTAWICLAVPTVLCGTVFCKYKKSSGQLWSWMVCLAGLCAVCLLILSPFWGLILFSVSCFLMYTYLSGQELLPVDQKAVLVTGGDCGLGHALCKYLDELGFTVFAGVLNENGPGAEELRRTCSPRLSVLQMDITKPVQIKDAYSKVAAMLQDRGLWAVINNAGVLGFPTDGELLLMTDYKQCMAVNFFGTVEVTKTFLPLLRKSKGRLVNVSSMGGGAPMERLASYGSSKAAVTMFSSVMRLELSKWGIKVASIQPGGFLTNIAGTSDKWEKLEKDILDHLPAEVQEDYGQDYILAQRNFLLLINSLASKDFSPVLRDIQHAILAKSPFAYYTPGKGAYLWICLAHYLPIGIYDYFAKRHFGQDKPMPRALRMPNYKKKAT

Experiment [1] deals with human type 5 17β-hydroxysteroid dehydrogenase (Homo sapiens, UniProt P42330). The experiment can be described thus: Inhibition of human type 5 17β-HSD activity in transfected 293 cells. The experiment is classed as cell-based. To be noted: read-out: Inhibition Type V 17β-HSD IC50.
Experiment [2] has as its target human type 2 17β-hydroxysteroid dehydrogenase (Homo sapiens, UniProt P37059). The experiment can be described thus: Enzymatic assay for type 2 17β-HSD. Conditions: for Inhibition Type 2 17β-HSD Activity [% Inh.]: at 3.10^-8M; for Inhibition Type 2 17β-HSD Activity [% Inh. at 3.10^−5 M]: Table 5 column 5.
For experiment [3], the system named is Shionogi mouse mammary carcinoma cells. The experiment is described as follows: Androgenic activity: stimulation of proliferation of Shionogi cells.
Experiment [4] has the same test system. The experiment is described as follows: Antiandrogenic activity: inhibition of DHT-induced proliferation of Shionogi cells. It is filed as cell-based. To be noted: for IC50: read-out: Antiandrogenic Activity Shionogi, DHT [IC50]; for Antiandrogenic Activity Shionogi, DHT / IC50: DHT.
In experiment [5] the test system is ZR-75-1 cells. The experiment is described as follows: Estrogenic activity: stimulation of proliferation of ZR-75-1 cells. The experiment is classed as cell-based, human. Conditions: for ZR-75-1 Activity Basal E^−6: Table 5 column 11, E^−6; for ZR-75-1 Activity Basal E^−8: Table 5 column 11, E^−8.
Experiment [6] concerns ZR-75-1 cells. The experiment is described as follows: Antiestrogenic activity: inhibition of E2-induced proliferation of ZR-75-1 cells. Also noted: ZR-75-1 Activity, E2 / ZR-75-1 Activity E2 E^−6: unit not given here.

As a reminder, the IC50 is the concentration that inhibits the measured activity by half.

Read-outs that look alike come from different tables or passages of the source.

`CC(=O)[C@@]1(OC(=O)Cc2ccccc2)CCC2C3C=C(C)C4=CC(=O)CC[C@]4(C)C3CC[C@@]21C` (stereo partly shown): the 50% inhibitory concentration (IC50) was found to be 5.5 nM in experiment [1] and 193 nM in experiment [4]. For the same compound, the “Inhibition Type 2 17β-HSD Activity [% Inh.]” value in experiment [2] is “[64] %”. Also, the “Androgenic Activity Shionogi, Basal” value in experiment [3] (E^−6) is given as −13; in experiment [3] (E^−7) it was −19. In experiment [4] (E^−7), the “Antiandrogenic Activity Shionogi, DHT” value is given as −45. Further, the “ZR-75-1 Activity, Basal” value is on record as 0 with ZR-75-1 cells [5] (E^−6) and −8 in the experiment with ZR-75-1 cells [5] (E^−8). For the same compound, the “ZR-75-1 Activity, E2” value in the experiment with ZR-75-1 cells [6] (E2) was −17; in the experiment with ZR-75-1 cells [6] (E2, E^−8), −23.

Regarding `CC1(C)CC[C@@]2(CCC3C4CCc5cc(OS(=O)(=O)c6ccccc6)ccc5C4CC[C@@]32C)OC1=O` (stereo partly shown), the 50% inhibitory concentration (IC50) in experiment [1] (Table 4′) worked out at 54 nM. Also, the “Inhibition Type 2 17β-HSD Activity [% Inh. at 3 · 10^−8M]” value in experiment [2] (Table 4′, bracketed values, 3 · 10^−8M) is “[62] %”. The “Antiandrogenic Activity Shionogi DHT E^−6” value in experiment [4] (Table 4′, DHT-induced proliferation, E^−6 (10^−6 M)) is −67%. Further, the “ZR-75-1 Activity E2 3E^−8” value with ZR-75-1 cells [6] (Table 4′, E2-induced proliferation, 3E^−8) was “+19%”.

For the compound `CN1C(=O)CC[C@]2(C)C3CC[C@@]4(C)C(CC[C@@]45CCCC(=O)O5)C3CCC12` (stereo partly shown), the concentration for half-maximal inhibition (IC50) in experiment [1] (Table 5 column 2) came to 27.8 nM. Besides, the “Inhibition Type 2 17β-HSD Activity [% Inh. at 3.10^−5 M]” value in experiment [2] (bracketed values) is “[68] %”. Also, in the experiment with ZR-75-1 cells [5], the “ZR-75-1 Activity Basal E^−6” value is 0 0% and the “ZR-75-1 Activity Basal E^−8” value is given as 0 0%.

Take `CC(=O)[C@@]1(OC(=O)C(C)(C)C)CCC2C3C=C(C)C4=CC(=O)CC[C@]4(C)C3CC[C@@]21C` (stereo partly shown): the IC50 in experiment [1] turned out to be 7.2 nM. In addition, the “Inhibition Type 2 17β-HSD Activity [% Inh.]” value in experiment [2] was “[20] %”. In addition, the “Androgenic Activity Shionogi, Basal” value in experiment [3] (E^−6) was −41; in experiment [3] (E^−7) it was −15. Besides, the “Antiandrogenic Activity Shionogi, DHT” value in experiment [4] (E^−6) is given as −117; in experiment [4] (E^−7), −39. In addition, the results for the “ZR-75-1 Activity, Basal” value in the experiment with ZR-75-1 cells [5] (E^−6) and in the experiment with ZR-75-1 cells [5] (E^−8) were 0 and −12, respectively. The “ZR-75-1 Activity, E2” value in the experiment on ZR-75-1 cells [6] (E2) is listed as −40; with ZR-75-1 cells [6] (E2, E^−8), −26.

Consider `CC(=O)[C@@]1(OC(=O)C(C)C)CCC2C3C=C(C)C4=CC(=O)CC[C@]4(C)C3CC[C@@]21C` (stereo partly shown), for which the figures for the half-inhibitory concentration (IC50) in experiment [1] and in experiment [4] were 3.7 nM and 67 nM, respectively. Besides, in experiment [2], the “Inhibition Type 2 17β-HSD Activity [% Inh.]” value was “[27] %”. The entries for the “Androgenic Activity Shionogi, Basal” value in experiment [3] (E^−6) and in experiment [3] (E^−7) were −13 and 0, respectively. For the same compound, the “Antiandrogenic Activity Shionogi, DHT” value is given as −107 in experiment [4] (E^−6) and −60 in experiment [4] (E^−7). The “ZR-75-1 Activity, Basal” value with ZR-75-1 cells [5] (E^−6) was −11; with ZR-75-1 cells [5] (E^−8) it was 0. Further, the “ZR-75-1 Activity, E2” value was −84 in the experiment on ZR-75-1 cells [6] (E2) and −50 with ZR-75-1 cells [6] (E2, E^−8).

Take `CCC(=O)O[C@]1(C(=O)N(C)CC(C)C)CCC2C3C=C(C)C4=CC(=O)CC[C@]4(C)C3CC[C@@]21C` (stereo partly shown): the IC50 in experiment [1] was 4 nM. Also, in experiment [2], the “Inhibition Type 2 17β-HSD Activity [% Inh.]” value is “[83] %”. Besides, the “Androgenic Activity Shionogi, Basal” value in experiment [3] (E^−6) is listed as −40; in experiment [3] (E^−7), −38. The “Antiandrogenic Activity Shionogi, DHT” value is recorded as −112 in experiment [4] (E^−6) and −53 in experiment [4] (E^−7).

For `CCCC(=O)O[C@]1(C(=O)N(C)CC(C)C)CCC2C3C=C(C)C4=CC(=O)CC[C@]4(C)C3CC[C@@]21C` (stereo partly shown), in experiment [1], the IC50 came to 5 nM. In addition, the “Inhibition Type 2 17β-HSD Activity [% Inh.]” value in experiment [2] was “[79] %”. For the same compound, the “Androgenic Activity Shionogi, Basal” value in experiment [3] (E^−6) is −44; in experiment [3] (E^−7), −33. In addition, the “Antiandrogenic Activity Shionogi, DHT” value in experiment [4] (E^−6) was −116; in experiment [4] (E^−7) it was −92.

On to `C[C@]12CCC(=O)NC1CCC1C2CC[C@@]2(C)C1CC[C@@]21CCCC(=O)O1` (stereo partly shown), for which, in experiment [1] (Table 5 column 2), the IC50 worked out at 31.4 nM. Moreover, the “Inhibition Type 2 17β-HSD Activity [% Inh. at 3.10^−5 M]” value in experiment [2] (bracketed values) was “[70] %”. Also, in the experiment with ZR-75-1 cells [5], the “ZR-75-1 Activity Basal E^−6” value is reported as 0 0% and the “ZR-75-1 Activity Basal E^−8” value is 0 0%.

Consider `CCCC(=O)O[C@]1(C(=O)N(C)CCC)CCC2C3C=C(C)C4=CC(=O)CC[C@]4(C)C3CC[C@@]21C` (stereo partly shown), for which the IC50 in experiment [1] is 6 nM. Further, the “Inhibition Type 2 17β-HSD Activity [% Inh.]” value in experiment [2] was “[75] %”. Also, the figures for the “Androgenic Activity Shionogi, Basal” value in experiment [3] (E^−6) and in experiment [3] (E^−7) were −59 and −41, respectively. For the same compound, the “Antiandrogenic Activity Shionogi, DHT” value in experiment [4] (E^−6) is reported as −119; in experiment [4] (E^−7) it was −101.
